US20100203126A1, “MULTILAYERED VITAMIN COMPLEX TABLET CONTAINING UBIDECARENONE” (priority 2007, published 2010)

Tests used:
[1] = Stability test for ubidecarenone and vitamins/minerals under co-existence, mixed 1:1; format: physicochemical; conditions: 40±2° C., 75±5 RH %
[2] = Stability test for ubidecarenone and vitamins/minerals under co-existence at typical formulation ratio; format: physicochemical; conditions: ubidecarenone 50 mg, accelerated stability test
Description: Ubidecarenone and vitamins/minerals were under co-existence at a typical formulation amount and ratio, and then the accelerated stability test for ubidecarenone was performed. In the following table, ubidecarenone is contained at the same amount of 50 mg in each formulation. The amount of ubidecarenone was omitted in the column of preparation formulation.
The content of ingredients such as vitamins and the content of ubidecarenone (50 mg equally) under the co-existence were represented in the column of preparation formulation of Table 27.

% residual amount of ubidecarenone ([1]; 4 weeks): 97.2%
% residual amount of ubidecarenone ([1]; 6 weeks): 96.4%
residual amount of ubidecarenone, 4 weeks (%) ([2]; 4 weeks): 97.2%
residual amount of ubidecarenone, 6 weeks (%) ([2]; 6 weeks): 96.4%
SMILES: COC1=C(OC)C(=O)C(C/C=C(\C)CC/C=C(\C)CC/C=C(\C)CC/C=C(\C)CC/C=C(\C)CC/C=C(\C)CC/C=C(\C)CC/C=C(\C)CC/C=C(\C)CCC=C(C)C)=C(C)C1=O [Ubidecarenone]
